Assay results from US20240409944A1, “COMPOSITIONS AND METHODS FOR THE INHIBITION OF TUMOR METASTASIS AND HORIZONTAL GENE TRANSFER” (The Regents of the University of Colorado, a body corporate, priority 2021, published 2024).
Read-outs that look alike come from different tables or passages of the source. *1 amine or outer side, *2 acyl side, *3 side chain or, on linkers, in order; H or OH if unused. Where a SMILES comes first, the peptide text is derived from it. Bridges are numbered along the chain shown (N, C = ends). Roman numbers before positions name the chains, in order. [ ]: non-standard residue; d: D form. Actinocin(9to1) = Cc1c2oc3c(C)ccc(C(=O)[*:1])c3nc-2c(C(=O)[*:2])c(N)c1=O; NMeV = CN[C@H](C(=O)O)C(C)C; Sar = CNCC(=O)O

System: MDA-MB-231-H2B-mCherry and RPE1-VEP co-culture
[1] = 10 μM Doxorubicin, 20 μM Actinomycin D, 100 μM Hygromycin B

Compound | CIC entry/exit time (time occurrence) compared to DMSO [1] | CIC structure duration compared to DMSO [1] | average duration of CIC structures (10 μM Doxorubicin, 20 μM Actinomycin D, 100 μM Hygromycin B, alone or combined, 48-hour imaging) [h] | time at which CIC structures were concentrated (entry-exit) (10 μM Doxorubicin, 20 μM Actinomycin D, 100 μM Hygromycin B, alone or combined, 48-hour imaging period) [h] | concentration that produced the highest frequency of CIC structures (10 μM, 20 μM and 40 μM tested, 48 hours live cell imaging) [µM] | CIC entry/exit time (time occurrence) compared to DMSO | CIC structure duration compared to DMSO | average duration of CIC structures [h] | concentration that produced the highest frequency of CIC structures [µM] | time at which CIC structures were concentrated (entry-exit) [h]
COc1cccc2c1C(=O)c1c(O)c3c(c(O)c1C2=O)C[C@@](O)(C(=O)CO)C[C@@H]3O[C@H]1C[C@H](N)[C@H](O)[C@H](C)O1 [Doxorubicin] | significantly increased | significantly increased | 14.24 | 14 to 27.7 | 10 | – | – | – | – | –
Cc1c2oc3c(C)ccc(C(=O)N[C@@H]4C(=O)N[C@H](C(C)C)C(=O)N5CCC[C@H]5C(=O)N(C)CC(=O)N(C)[C@@H](C(C)C)C(=O)O[C@@H]4C)c3nc-2c(C(=O)N[C@@H]2C(=O)N[C@H](C(C)C)C(=O)N3CCC[C@H]3C(=O)N(C)CC(=O)N(C)[C@@H](C(C)C)C(=O)O[C@@H]2C)c(N)c1=O [Actinomycin D] (I: T[dV]P[Sar][NMeV] / II: T[dV]P[Sar][NMeV]; ester I:1-I:C, II:1-II:C; linker I:N-II:N via Actinocin(9to1)) | – | – | – | – | – | no significance | no significance | 8.9 | 20 | 7.8 to 16.9
